1 substance from PMC10313052, “Filarial DAF-12 sense the host serum to resume iL3 development during infection” (PLOS Pathogens, 2023) can be followed below.

Sequences of proteins named here, by UniProt entry; tags and fusion partners are left off. Residues count along the entry.
UniProt A0A7D0JJL8, 587-828 limits assumed: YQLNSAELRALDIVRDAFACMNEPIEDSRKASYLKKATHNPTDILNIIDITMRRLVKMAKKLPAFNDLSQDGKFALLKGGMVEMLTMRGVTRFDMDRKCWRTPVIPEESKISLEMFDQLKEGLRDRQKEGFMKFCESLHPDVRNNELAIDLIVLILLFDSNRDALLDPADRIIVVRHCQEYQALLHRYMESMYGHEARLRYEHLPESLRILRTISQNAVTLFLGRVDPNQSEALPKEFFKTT

The target in this experiment is DimDAF-12 (Dirofilaria immitis, UniProt A0A7D0JJL8). Format: cell-based. To be noted: read-out: EC50 (logEC50 SE) (converted).

3β-hydroxy-5-cholestenoic acid: the EC50 was 192 nM.
